This is an account of results in ChEMBL document CHEMBL1122015, “Rigid analogues of dopamine: synthesis and interaction of 6-exo- and 6-endo-(3',4'-dihydroxyphenyl)-2-azabicyclo[2.2.2]octanes with dopamine uptake sites and receptors” (J Med Chem, 1982).

For the test, the species on record is Rattus norvegicus. In words: Effect on stimulatory activity of exogenous DA toward DA-sensitive adenylate cyclase activity in rat striatal homogenates. It is filed as functional, organism-based.

In turn, `NCCc1ccc(O)c(O)c1.Oc1ccc([C@H]2CC3CC[C@H]2NC3)cc1O` (stereo in doubt; form 1) had an Activity of 183%.

In the case of `NCCc1ccc(O)c(O)c1.Oc1ccc([C@H]2CC3CC[C@H]2NC3)cc1O` (stereo in doubt; form 2), the Activity came to 169%.
